Sequences of proteins named here, by UniProt entry; tags and fusion partners are left off. A change or cut given only in a name is not applied to a line headed by its entry.
UniProt P13945: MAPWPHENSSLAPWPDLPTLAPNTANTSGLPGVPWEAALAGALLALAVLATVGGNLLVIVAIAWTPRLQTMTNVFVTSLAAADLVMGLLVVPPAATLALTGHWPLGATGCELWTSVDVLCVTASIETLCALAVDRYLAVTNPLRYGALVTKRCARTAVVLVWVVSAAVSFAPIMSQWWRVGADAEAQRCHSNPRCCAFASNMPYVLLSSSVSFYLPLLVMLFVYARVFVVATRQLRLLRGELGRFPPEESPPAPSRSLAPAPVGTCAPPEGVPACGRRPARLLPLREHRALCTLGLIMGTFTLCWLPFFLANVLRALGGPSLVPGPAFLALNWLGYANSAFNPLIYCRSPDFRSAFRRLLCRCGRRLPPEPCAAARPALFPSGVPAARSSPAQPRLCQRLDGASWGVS

According to patent US6451814B1, “Heterocyclic β-3 adrenergic receptor agonists” (Wyeth, priority 2000, dated 2002):

Target: T1, human β3-adrenergic receptor (Homo sapiens, UniProt P13945)
T1 construct: Full length β3 AR clones (402 amino acids) containing the last 6 amino acids of hβ3—AR are prepared; expressed in transfected cells; host or cells: CHO cells
Assay: cAMP response (SPA kit) in CHO cells transfected with human β3 adrenergic receptor
Format: cell-based

O=C(NC1CCCCC1)N1CCC(Nc2ccc(CCNC[C@H](O)COc3ccc(O)cc3)cc2)CC1 [Example 2]
EC50 (CHO cells expressing human β3-AR, 10^-9 M to 10^-5 M, 30 min at 37° C., cAMP by SPA): 80 nM | IA(β3) (maximal response of compound compared to maximal response of isoproterenol at 10^-5 M, CHO cells, human β3-AR): 1.12
